Assay results published in ChEMBL document CHEMBL5390321, “Transaminases Provide Key Chiral Building Blocks for the Synthesis of Selective M1/M4 Agonists” (ACS Med Chem Lett, 2023).

The chains behind the UniProt entries cited, without tags or fusion partners.
UniProt P08172, whole entry: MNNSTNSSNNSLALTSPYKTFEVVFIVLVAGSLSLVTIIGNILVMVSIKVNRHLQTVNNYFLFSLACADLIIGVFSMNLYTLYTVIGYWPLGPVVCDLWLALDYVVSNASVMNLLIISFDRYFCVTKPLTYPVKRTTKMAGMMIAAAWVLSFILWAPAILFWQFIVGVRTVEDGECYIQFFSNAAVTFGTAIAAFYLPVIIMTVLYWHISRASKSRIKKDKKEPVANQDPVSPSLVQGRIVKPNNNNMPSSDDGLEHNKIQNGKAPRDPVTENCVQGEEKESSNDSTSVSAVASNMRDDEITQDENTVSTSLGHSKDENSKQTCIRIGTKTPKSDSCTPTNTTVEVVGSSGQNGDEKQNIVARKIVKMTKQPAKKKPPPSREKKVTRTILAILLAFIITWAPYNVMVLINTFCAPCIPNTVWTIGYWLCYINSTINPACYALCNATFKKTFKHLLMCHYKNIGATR

Molecular target: Muscarinic acetylcholine receptor M2 (Homo sapiens, UniProt P08172)
Experiment: Activation of human cloned muscarinic M2 receptor expressed in CHO-K1 cells by Calcium flux assay
Format: functional, cell-based

EC50: 770 nM
Compound: CCCCCCOc1nsnc1C1=CCCN(C)C1 [XANOMELINE]
